# In article PMC5431190, “Investigation of cationicity and structure of pseudin-2 analogues for enhanced bacterial selectivity and anti-inflammatory activity” (Scientific Reports, 2017):
# Test system: human red blood cells (hRBCs)
# Assay: Haemolytic activity
# Type: cell-based
# Conditions: 4% (v/v) hRBCs in PBS, 1 h at 37 °C, absorbance 405 nm; printed in both Gram-negative and Gram-positive sections
# Experimental: Peptide-induced lysis of human red blood cells (hRBCs) was determined as follows. Fresh hRBCs were washed 2–3 times with phosphate-buffered saline (PBS) by centrifugation for 5 min at 2500 rpm at 4 °C. Peptides in PBS were incubated with 4% (v/v) hRBCs for 1 h at 37 °C. Samples were then centrifuged for 5 min at 1000 × g. The absorbance of the supernatant at 405 nm was used as a measure of haemolysis. As a positive control, 100% haemolysis was obtained by treating hRBCs with 0.1% Triton X-100.
compound,measurement,value
"CC[C@H](C)[C@H](NC(=O)CN)C(=O)NCC(=O)N[C@@H](C)C(=O)N[C@H](C(=O)N[C@@H](CC(C)C)C(=O)N[C@@H](CCCCN)C(=O)N[C@H](C(=O)N[C@@H](CC(C)C)C(=O)N[C@H](C(=O)N[C@H](C(=O)NCC(=O)N[C@@H](CC(C)C)C(=O)N1CCC[C@H]1C(=O)N[C@@H](C)C(=O)N[C@@H](CC(C)C)C(=O)N[C@H](C(=O)N[C@@H](CO)C(=O)N[C@@H](Cc1c[nH]c2ccccc12)C(=O)N[C@H](C(=O)N[C@@H](CCCCN)C(=O)N[C@@H](CCCNC(=N)N)C(=O)N[C@@H](CCCCN)C(=O)N[C@@H](CCCNC(=N)N)C(=O)N[C@@H](CCC(N)=O)C(=O)N[C@@H](CCC(N)=O)C(N)=O)[C@@H](C)CC)[C@@H](C)CC)[C@@H](C)O)[C@@H](C)O)C(C)C)C(C)C [Melittin, reference compound]",MHC (minimal peptide concentration that produces haemolysis),0.4 µM
